Earlier results, collected in US20040006094A1, “4-pyrimidinamine derivatives, pharmaceutical compositions and related methods” (priority 2000, published 2004).

By UniProt entry, the sequences of proteins in these tests, tags left out.
UniProt Q16539, whole entry: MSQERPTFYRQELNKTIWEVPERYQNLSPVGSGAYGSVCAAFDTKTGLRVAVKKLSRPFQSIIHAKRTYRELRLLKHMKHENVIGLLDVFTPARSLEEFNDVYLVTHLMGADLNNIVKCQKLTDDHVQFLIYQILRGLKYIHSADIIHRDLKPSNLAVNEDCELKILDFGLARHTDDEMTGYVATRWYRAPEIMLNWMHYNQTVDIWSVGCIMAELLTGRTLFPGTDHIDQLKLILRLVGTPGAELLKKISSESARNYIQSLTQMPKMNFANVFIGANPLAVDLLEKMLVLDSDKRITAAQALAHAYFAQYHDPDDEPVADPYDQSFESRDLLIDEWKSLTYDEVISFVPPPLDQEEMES

Target: p38 kinase (Homo sapiens, UniProt Q16539)
Conditions: cited from earlier work

SMILES: CCc1[nH]c(-c2ccc(OC)cc2)nc1-c1ccncc1 [SB202474]
- Activity, p38 kinase: Inactive
